Experimental data as given in article PMC6431625 (Frontiers in Endocrinology, 2019).

Chains of the proteins cited; added tags and fusions are not shown. Lines headed by an entry give the natural chain unless they say otherwise; changes in a name come on top.
UniProt P43088: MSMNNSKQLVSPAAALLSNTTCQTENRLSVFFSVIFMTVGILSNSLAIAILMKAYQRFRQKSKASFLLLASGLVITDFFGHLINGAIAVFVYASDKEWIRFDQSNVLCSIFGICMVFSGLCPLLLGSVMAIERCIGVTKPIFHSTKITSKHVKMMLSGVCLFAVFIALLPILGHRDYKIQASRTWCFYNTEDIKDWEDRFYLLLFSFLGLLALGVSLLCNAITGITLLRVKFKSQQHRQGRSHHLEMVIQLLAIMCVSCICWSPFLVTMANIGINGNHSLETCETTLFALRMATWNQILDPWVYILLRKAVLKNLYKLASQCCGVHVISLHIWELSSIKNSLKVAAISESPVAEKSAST

Molecular target: AT1R-Venus/FP-WT dimer (Homo sapiens, UniProt P30556+P43088)
Test: BRET β-arrestin 1/2-RlucII recruitment to the AT1R-Venus/FP-WT dimer
Conditions: pretreatment 30 min, sucrose 450 mM, phenylarsine oxide 2.5 μM, concanavalin A 0.4 g/L

SMILES: O=[As]c1ccccc1 (centres unmarked)
- Effect of endocytosis inhibitor pretreatment on Ang II-induced β-arrestin 1/2-RlucII recruitment (Ang II 1 μM): diminished
- Effect of endocytosis inhibitor pretreatment on PGF2α-induced β-arrestin 1/2-RlucII recruitment (PGF2α 1 μM): diminished
